Results from ChEMBL document CHEMBL6134891, “Thienopyrimidinone Derivatives as a GluN2B/C/D Biased, Positive Allosteric Modulator of the N-Methyl-d-Aspartate Receptor” (J Med Chem, 2025).

Chains of the proteins cited; added tags and fusions are not shown. Lines headed by an entry give the natural chain unless they say otherwise; changes in a name come on top.
UniProt P51575: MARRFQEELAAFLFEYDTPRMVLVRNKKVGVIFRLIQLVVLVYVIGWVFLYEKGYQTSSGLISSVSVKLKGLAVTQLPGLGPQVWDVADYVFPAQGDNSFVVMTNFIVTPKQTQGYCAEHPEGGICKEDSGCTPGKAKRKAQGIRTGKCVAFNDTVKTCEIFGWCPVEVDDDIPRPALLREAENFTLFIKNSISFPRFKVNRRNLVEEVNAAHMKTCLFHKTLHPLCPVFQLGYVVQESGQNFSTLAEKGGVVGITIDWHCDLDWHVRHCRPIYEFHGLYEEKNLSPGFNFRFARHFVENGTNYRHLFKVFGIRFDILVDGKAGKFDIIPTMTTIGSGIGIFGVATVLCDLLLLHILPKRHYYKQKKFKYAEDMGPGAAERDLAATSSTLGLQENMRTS
UniProt Q99571: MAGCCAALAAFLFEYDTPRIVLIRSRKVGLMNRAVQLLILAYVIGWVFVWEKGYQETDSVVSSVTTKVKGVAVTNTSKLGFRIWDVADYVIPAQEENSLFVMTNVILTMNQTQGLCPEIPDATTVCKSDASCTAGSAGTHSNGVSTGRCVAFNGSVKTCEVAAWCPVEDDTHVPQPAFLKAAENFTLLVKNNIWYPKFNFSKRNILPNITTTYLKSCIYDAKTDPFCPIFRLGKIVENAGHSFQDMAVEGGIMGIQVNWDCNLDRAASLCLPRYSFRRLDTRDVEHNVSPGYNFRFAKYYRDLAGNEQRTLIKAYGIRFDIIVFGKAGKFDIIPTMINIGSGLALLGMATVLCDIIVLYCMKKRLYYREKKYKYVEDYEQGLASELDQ
UniProt Q9UBL9: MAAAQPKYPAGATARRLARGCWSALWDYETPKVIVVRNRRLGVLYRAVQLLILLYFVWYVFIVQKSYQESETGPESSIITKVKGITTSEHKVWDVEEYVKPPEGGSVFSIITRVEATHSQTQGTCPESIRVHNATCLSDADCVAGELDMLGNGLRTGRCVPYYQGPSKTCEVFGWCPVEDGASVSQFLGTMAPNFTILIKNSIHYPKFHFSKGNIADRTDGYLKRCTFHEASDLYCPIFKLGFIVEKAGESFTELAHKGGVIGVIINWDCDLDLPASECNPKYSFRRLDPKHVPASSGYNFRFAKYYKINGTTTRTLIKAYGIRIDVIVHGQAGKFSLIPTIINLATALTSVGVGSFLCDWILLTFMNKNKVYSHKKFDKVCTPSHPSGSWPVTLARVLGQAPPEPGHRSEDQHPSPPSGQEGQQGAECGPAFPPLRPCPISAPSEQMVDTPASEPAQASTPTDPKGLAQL
UniProt Q99572: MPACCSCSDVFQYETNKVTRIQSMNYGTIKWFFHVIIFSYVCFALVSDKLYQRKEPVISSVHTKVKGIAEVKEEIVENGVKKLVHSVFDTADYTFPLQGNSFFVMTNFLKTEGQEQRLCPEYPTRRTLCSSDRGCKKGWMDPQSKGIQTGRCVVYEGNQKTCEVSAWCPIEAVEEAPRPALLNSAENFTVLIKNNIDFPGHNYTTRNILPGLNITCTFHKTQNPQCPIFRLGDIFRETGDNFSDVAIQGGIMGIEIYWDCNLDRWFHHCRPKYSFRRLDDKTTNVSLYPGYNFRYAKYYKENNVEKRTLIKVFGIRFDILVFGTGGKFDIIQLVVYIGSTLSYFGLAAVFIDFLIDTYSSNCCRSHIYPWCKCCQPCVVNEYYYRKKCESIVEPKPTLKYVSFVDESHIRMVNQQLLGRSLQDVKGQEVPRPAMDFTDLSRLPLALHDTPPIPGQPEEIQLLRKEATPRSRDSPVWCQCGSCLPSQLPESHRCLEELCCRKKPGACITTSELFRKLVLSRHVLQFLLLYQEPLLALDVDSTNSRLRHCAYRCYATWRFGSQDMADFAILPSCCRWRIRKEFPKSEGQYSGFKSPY
UniProt Q93086: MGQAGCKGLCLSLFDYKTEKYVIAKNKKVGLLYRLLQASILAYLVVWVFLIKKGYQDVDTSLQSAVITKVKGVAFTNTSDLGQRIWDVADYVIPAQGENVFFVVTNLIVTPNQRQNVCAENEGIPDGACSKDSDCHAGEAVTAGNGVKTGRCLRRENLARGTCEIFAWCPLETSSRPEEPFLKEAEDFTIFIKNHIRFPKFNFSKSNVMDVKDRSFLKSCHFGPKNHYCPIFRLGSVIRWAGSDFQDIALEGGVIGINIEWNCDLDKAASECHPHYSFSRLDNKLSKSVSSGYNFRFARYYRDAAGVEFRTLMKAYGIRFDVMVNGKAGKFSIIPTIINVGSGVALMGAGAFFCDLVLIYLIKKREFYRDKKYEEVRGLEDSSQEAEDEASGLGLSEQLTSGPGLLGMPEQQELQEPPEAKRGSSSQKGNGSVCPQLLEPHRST
UniProt P39086: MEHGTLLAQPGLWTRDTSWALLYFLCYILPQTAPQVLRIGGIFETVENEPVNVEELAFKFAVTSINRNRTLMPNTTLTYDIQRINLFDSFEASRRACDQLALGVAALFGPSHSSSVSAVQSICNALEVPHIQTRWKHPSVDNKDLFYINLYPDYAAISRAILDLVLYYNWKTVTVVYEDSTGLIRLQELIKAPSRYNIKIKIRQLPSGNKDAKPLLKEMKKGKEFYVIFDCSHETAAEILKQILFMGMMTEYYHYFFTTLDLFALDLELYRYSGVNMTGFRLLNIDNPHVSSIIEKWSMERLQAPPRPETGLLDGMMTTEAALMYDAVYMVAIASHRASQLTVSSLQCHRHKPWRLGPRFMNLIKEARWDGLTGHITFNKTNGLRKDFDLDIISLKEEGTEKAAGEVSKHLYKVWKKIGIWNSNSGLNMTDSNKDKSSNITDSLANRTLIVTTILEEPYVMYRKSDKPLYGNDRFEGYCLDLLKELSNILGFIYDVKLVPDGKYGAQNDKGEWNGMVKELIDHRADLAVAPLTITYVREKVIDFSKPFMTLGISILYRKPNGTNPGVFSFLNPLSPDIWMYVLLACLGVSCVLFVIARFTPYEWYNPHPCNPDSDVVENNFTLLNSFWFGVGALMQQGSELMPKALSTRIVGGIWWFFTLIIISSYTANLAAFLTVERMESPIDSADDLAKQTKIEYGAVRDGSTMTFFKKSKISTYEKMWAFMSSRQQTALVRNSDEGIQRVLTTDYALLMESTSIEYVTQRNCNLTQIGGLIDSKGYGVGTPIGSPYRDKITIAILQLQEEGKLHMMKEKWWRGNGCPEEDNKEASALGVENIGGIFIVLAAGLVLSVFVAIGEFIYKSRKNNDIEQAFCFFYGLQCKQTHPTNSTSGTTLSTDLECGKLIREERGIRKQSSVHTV
UniProt Q16478: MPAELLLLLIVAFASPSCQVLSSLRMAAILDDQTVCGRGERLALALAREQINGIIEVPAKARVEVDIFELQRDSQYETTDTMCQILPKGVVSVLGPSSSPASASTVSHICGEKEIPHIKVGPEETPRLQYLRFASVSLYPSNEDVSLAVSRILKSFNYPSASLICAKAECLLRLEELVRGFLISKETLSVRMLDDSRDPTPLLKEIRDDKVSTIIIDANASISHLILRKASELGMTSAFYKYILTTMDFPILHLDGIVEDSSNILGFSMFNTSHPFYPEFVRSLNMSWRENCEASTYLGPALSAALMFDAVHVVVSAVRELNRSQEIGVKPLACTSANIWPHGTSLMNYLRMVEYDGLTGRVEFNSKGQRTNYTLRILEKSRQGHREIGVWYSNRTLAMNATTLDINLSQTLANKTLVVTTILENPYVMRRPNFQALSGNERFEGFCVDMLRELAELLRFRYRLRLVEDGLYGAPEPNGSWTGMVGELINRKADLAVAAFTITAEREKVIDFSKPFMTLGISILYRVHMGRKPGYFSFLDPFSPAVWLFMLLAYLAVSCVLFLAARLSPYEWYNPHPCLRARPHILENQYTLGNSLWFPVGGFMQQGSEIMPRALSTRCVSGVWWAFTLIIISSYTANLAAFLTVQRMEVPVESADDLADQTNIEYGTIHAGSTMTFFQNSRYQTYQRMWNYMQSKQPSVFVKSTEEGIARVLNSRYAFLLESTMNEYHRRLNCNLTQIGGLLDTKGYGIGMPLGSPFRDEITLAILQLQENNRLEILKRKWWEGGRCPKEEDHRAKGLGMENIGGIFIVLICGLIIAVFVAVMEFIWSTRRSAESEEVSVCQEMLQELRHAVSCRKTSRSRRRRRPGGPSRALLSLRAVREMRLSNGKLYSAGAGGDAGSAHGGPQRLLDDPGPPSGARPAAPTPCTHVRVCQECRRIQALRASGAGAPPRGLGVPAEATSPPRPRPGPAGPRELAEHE
UniProt Q13003: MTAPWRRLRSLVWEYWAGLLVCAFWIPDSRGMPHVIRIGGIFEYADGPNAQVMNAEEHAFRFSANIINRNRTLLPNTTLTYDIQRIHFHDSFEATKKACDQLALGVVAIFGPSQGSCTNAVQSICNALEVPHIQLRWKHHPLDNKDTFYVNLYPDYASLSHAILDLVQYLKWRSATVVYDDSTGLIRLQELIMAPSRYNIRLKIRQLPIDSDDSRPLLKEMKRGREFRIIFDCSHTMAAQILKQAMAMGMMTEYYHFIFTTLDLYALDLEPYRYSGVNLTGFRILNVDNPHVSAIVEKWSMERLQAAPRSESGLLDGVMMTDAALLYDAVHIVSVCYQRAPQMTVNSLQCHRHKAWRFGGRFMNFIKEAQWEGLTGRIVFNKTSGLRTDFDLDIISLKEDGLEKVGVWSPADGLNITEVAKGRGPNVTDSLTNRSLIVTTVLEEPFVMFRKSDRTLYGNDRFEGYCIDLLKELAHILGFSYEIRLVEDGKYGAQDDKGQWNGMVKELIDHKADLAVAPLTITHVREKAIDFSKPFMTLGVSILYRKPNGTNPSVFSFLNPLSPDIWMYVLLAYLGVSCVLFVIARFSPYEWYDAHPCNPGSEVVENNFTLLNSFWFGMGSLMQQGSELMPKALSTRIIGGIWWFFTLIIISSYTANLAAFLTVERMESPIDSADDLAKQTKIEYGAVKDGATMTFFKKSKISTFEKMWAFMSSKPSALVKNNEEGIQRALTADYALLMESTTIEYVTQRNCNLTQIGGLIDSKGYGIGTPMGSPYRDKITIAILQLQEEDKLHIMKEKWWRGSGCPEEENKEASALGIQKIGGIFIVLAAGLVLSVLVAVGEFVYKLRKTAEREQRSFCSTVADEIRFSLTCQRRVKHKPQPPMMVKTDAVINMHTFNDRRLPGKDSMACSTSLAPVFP
UniProt Q00960, whole entry, looked up: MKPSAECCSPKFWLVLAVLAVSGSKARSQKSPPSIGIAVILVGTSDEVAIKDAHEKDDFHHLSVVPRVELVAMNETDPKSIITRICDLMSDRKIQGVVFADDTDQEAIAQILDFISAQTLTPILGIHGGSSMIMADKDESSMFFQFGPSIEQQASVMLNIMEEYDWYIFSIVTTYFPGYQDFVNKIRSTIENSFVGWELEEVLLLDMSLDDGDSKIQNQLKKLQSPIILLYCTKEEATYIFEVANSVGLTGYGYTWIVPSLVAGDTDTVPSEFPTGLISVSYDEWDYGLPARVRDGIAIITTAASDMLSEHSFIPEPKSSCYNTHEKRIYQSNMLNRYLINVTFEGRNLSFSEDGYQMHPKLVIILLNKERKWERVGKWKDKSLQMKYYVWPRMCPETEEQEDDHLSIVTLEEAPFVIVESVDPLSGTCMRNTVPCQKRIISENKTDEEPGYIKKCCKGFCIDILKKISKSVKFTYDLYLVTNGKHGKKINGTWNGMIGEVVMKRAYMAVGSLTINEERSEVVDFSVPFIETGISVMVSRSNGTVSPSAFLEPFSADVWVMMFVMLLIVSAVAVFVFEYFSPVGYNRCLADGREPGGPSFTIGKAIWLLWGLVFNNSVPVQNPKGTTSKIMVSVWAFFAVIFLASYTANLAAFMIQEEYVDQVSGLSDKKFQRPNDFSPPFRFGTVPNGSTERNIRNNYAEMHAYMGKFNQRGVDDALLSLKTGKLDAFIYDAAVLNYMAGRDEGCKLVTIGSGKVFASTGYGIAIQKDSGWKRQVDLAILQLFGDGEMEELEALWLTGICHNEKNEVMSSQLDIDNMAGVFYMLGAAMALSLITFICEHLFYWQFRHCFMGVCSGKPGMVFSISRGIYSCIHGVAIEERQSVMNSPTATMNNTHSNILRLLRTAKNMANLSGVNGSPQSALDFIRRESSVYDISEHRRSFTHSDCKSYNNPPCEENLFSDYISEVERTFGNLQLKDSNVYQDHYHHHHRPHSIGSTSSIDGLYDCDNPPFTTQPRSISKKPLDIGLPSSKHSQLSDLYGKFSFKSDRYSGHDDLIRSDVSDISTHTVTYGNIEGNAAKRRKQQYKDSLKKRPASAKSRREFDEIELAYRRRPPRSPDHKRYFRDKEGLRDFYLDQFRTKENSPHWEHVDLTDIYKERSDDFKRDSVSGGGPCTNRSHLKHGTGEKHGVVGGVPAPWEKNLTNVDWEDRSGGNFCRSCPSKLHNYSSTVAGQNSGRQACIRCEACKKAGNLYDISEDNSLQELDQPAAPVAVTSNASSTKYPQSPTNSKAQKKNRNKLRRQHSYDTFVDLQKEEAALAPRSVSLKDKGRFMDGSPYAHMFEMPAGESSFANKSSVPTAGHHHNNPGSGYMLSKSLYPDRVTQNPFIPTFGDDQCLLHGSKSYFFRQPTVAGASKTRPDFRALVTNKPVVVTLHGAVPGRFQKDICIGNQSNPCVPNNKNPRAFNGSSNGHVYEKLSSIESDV

Key:
Mus musculus [1] = assay: Inhibition of avoidance behaviour in C57Bl/6 mouse assessed as distance traveled to center at 10 mg/kg, ip treated 1 hr prior to testing and measured for 10 mins by open-field test (reference value: 22.9 +/- 2.89 %); type: functional; parameters: scale not given: the % may be the effect or the level left; settings: time 70 min, 1.167 h
[2] = AUClast in brain of Sprague-Dawley rat at 1 mg/kg, iv; type: ADME, organism-based; settings: in vivo
Mus musculus [3] = assay: Inhibition of avoidance behaviour in C57Bl/6 mouse assessed as time spent in light chamber at 5 mg/kg, ip treated 1 hr prior to testing and measured for 10 mins by light/dark box test (reference value: 15.2 +/- 2.91 %); type: functional; parameters: scale not given: the % may be the effect or the level left; settings: time 70 min, 1.167 h
Mus musculus [4] = assay: Inhibition of avoidance behaviour in C57Bl/6 mouse assessed as time taken to reach center at 10 mg/kg, ip treated 1 hr prior to testing and measured for 10 mins by open-field test (reference value: 5.44 +/- 0.911 %); type: functional; parameters: scale not given: the % may be the effect or the level left; settings: time 70 min, 1.167 h
Mus musculus [5] = assay: Inhibition of avoidance behaviour in C57Bl/6 mouse assessed as distance traveled at 10 mg/kg, ip treated 1 hr prior to testing and measured for 10 mins by light/dark box test (reference value: 40.3 +/- 3.47 %); type: functional; parameters: scale not given: the % may be the effect or the level left; settings: time 70 min, 1.167 h
Mus musculus [6] = assay: Inhibition of avoidance behaviour in C57Bl/6 mouse assessed as distance traveled at 5 mg/kg, ip treated 1 hr prior to testing and measured for 10 mins by light/dark box test (reference value: 40.3 +/- 3.47 %); type: functional; parameters: scale not given: the % may be the effect or the level left; settings: time 70 min, 1.167 h
[7] = biological target: P2X receptor (Homo sapiens) (UniProt P51575+Q99571+Q9UBL9+O15547+P56373+Q99572+Q93086); assay: Inhibition of P2x receptor (unknown origin) expressed in Xenopus oocytes at 5 uM by radioligand binding assay; type: cell-based; settings: Oocyte
Mus musculus [8] = assay: Inhibition of avoidance behaviour in C57Bl/6 mouse assessed as number of entries to center at 10 mg/kg, ip treated 1 hr prior to testing and measured for 10 mins by open-field test (reference value: 20.1 +/- 4.41); type: functional; settings: time 70 min, 1.167 h
Mus musculus [9] = assay: Inhibition of avoidance behaviour in C57Bl/6 mouse assessed as time spent in rearing at 5 mg/kg, ip treated 1 hr prior to testing and measured for 10 mins by open-field test (reference value: 20.1 +/- 4.41 sec); type: functional; settings: time 70 min, 1.167 h
[10] = AUClast in plasma of Sprague-Dawley rat at 10 mg/kg, po; type: ADME, organism-based; settings: in vivo
Mus musculus [11] = assay: Inhibition of avoidance behaviour in C57Bl/6 mouse assessed as number of entries at 5 mg/kg, ip treated 1 hr prior to testing and measured for 10 mins by light/dark box test (reference value: 14.3 +/- 2.20); type: functional; settings: time 70 min, 1.167 h
Mus musculus [12] = assay: Inhibition of avoidance behaviour in C57Bl/6 mouse assessed as total distance traveled at 5 mg/kg, ip treated 1 hr prior to testing and measured for 10 mins by light/dark box test (reference value: 1500 +/- 111 cm); type: functional; settings: time 70 min, 1.167 h
Mus musculus [13] = assay: Inhibition of avoidance behaviour in C57Bl/6 mouse assessed as time spent in light chamber at 10 mg/kg, ip treated 1 hr prior to testing and measured for 10 mins by light/dark box test (reference value: 15.2 +/- 2.91 %); type: functional; parameters: scale not given: the % may be the effect or the level left; settings: time 70 min, 1.167 h
[14] = biological target: Glutamate receptor ionotropic, NMDA 2C (Rattus norvegicus) (UniProt Q00961); type: cell-based; settings: Oocyte, filed as positive allosteric modulator
Mus musculus [15] = assay: Inhibition of avoidance behaviour in C57Bl/6 mouse assessed as distance traveled to center at 5 mg/kg, ip treated 1 hr prior to testing and measured for 10 mins by open-field test (reference value: 22.9 +/- 2.89 %); type: functional; parameters: scale not given: the % may be the effect or the level left; settings: time 70 min, 1.167 h
[16] = biological target: Glutamate receptor ionotropic kainate (Homo sapiens) (UniProt P39086+Q16478+Q16099+Q13002+Q13003); assay: Inhibition of kainate receptor (unknown origin) expressed in Xenopus oocytes at 5 uM by radioligand binding assay; type: cell-based; settings: Oocyte
[17] = AUClast in plasma of C57BL/6 mouse at 10 mg/kg, ip; type: ADME, organism-based; settings: in vivo
Mus musculus [18] = assay: Inhibition of avoidance behaviour in C57Bl/6 mouse assessed as time spent in rearing at 10 mg/kg, ip treated 1 hr prior to testing and measured for 10 mins by open-field test (reference value: 20.1 +/- 4.41 sec); type: functional; settings: time 70 min, 1.167 h
[19] = biological target: Glutamate receptor ionotropic, NMDA 2B (Rattus norvegicus) (UniProt Q00960); type: cell-based; settings: Oocyte, filed as positive allosteric modulator
Mus musculus [20] = assay: Inhibition of avoidance behaviour in C57Bl/6 mouse assessed as total distance traveled at 10 mg/kg, ip treated 1 hr prior to testing and measured for 10 mins by light/dark box test (reference value: 1500 +/- 111 cm); type: functional; settings: time 70 min, 1.167 h
[21] = biological target: Glutamate receptor ionotropic, NMDA 2D (Rattus norvegicus) (UniProt Q62645); type: cell-based; settings: Oocyte, filed as positive allosteric modulator
[22] = AUClast in plasma of Sprague-Dawley rat at 10 mg/kg, ip; type: ADME, organism-based; settings: in vivo
Mus musculus [23] = assay: Inhibition of avoidance behaviour in C57Bl/6 mouse assessed as number of entries at 10 mg/kg, ip treated 1 hr prior to testing and measured for 10 mins by light/dark box test (reference value: 14.3 +/- 2.20); type: functional; settings: time 70 min, 1.167 h
Mus musculus [24] = assay: Inhibition of avoidance behaviour in C57Bl/6 mouse assessed as time taken to reach center at 5 mg/kg, ip treated 1 hr prior to testing and measured for 10 mins by open-field test (reference value: 5.44 +/- 0.911 %); type: functional; parameters: scale not given: the % may be the effect or the level left; settings: time 70 min, 1.167 h
[25] = AUClast in brain of Sprague-Dawley rat at 10 mg/kg, po; type: ADME, organism-based; settings: in vivo
Mus musculus [26] = assay: Inhibition of avoidance behaviour in C57Bl/6 mouse assessed as number of entries to center at 5 mg/kg, ip treated 1 hr prior to testing and measured for 10 mins by open-field test (reference value: 20.1 +/- 4.41); type: functional; settings: time 70 min, 1.167 h
[27] = AUClast in brain of Sprague-Dawley rat at 10 mg/kg, ip; type: ADME, organism-based; settings: in vivo
[28] = AUClast in brain of C57BL/6 mouse at 10 mg/kg, ip; type: ADME, organism-based; settings: in vivo
[29] = AUClast in plasma of Sprague-Dawley rat at 1 mg/kg, iv; type: ADME, organism-based; settings: in vivo

C#Cc1sc2ncn(CC(=O)N3CC(C)(F)C3)c(=O)c2c1-c1ccc(F)c(Br)c1
Activity (Mus musculus [1]): 30.2% | AUClast [2]: 113 ng·h/g | Activity (Mus musculus [3]): 13.5% | Activity (Mus musculus [4]): 8.18% | Activity (Mus musculus [5]): 61.7% | Activity (Mus musculus [6]): 30.3% | inhibition [7]: Not active; Minimal Effect Observed | Activity (Mus musculus [8]): 26.5 | Time (Mus musculus [9]): 130 s | AUClast [10]: 1217 ng·h/g | Activity (Mus musculus [11]): 16 | Activity (Mus musculus [12]): 1450 cm | Activity (Mus musculus [13]): 35.3% | Emax [14]: 500% | Activity (Mus musculus [15]): 20.8% | inhibition [16]: Not active; Minimal Effect Observed | AUClast [17]: 3153 ng·h/g | Time (Mus musculus [18]): 135 s | Emax [19]: 395% | Activity (Mus musculus [20]): 1870 cm | Emax [21]: 834% | AUClast [22]: 3352 ng·h/g | Activity (Mus musculus [23]): 23.1 | Activity (Mus musculus [24]): 5.99% | AUClast [25]: 754 ng·h/g | Activity (Mus musculus [26]): 23.8 | AUClast [27]: 1740 ng·h/g | AUClast [28]: 1000 ng·h/g | AUClast [29]: 210 ng·h/g
